What was measured:
5-HT2A receptor = 5-HT2A receptor (Homo sapiens, UniProt P28223); experiment: FLIPR Ca2+ flux functional assay, 5-HT2A; assay type: cell-based
Method: Activity at 5-HT2A, 5-HT2B and 5-HT2C receptors was determined using a FLIPR Ca^2+ flux assay at WuXi AppTec Co. Ltd. (Hong Kong) Discovery Biology Unit according to their standard protocols. Briefly, stably transfected cells expressing the receptor of interest (HEK293 for 5-HT2A and 5-HT2C; CHO-K1 for 5-HT2B) were grown and plated in a 384 well plate and incubated at 37° C. and 5% CO2 overnight. A 250 mM stock solution of probenecid in FLIPR calcium assay buffer (10 mL) was freshly prepared and combined with a fluorescent dye (Fluo-4 Direct) to give a final assay concentration of 2.5 mM. Reference compounds were 4-fold serially diluted and the screening compounds were 3-fold serially diluted in 100% DMSO for 10 points using Agilent Bravo, and 750 nL was added to a 384 well compound plate using Echo along with 30 μL assay buffer. The fluorescent dye was then added to the assay plate along with assay buffer to a final volume of […]. The cell plate was incubated for 50 min at 37° C. and 5% CO2 and placed into the FLIPR Tetra along with the compound plate. 10 μL of references and compounds were then transferred from the compound plate into the cell plate and the fluorescent signal was read.

Sequences of proteins named here, by UniProt entry; tags and fusion partners are left off. Residues count along the entry.
UniProt P28223, whole entry: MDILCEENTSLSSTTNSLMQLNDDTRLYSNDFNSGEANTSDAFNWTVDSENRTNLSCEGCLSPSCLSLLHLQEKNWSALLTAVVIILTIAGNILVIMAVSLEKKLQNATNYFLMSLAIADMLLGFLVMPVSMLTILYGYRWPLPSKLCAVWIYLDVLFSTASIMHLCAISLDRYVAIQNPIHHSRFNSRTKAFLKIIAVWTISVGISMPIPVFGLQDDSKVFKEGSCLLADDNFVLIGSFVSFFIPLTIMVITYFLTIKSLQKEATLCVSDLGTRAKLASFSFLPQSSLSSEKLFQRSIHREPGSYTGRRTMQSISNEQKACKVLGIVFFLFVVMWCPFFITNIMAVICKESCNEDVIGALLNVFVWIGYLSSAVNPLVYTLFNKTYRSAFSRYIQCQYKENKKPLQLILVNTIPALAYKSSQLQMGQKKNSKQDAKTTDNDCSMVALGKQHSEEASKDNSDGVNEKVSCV
UniProt P41595, whole entry: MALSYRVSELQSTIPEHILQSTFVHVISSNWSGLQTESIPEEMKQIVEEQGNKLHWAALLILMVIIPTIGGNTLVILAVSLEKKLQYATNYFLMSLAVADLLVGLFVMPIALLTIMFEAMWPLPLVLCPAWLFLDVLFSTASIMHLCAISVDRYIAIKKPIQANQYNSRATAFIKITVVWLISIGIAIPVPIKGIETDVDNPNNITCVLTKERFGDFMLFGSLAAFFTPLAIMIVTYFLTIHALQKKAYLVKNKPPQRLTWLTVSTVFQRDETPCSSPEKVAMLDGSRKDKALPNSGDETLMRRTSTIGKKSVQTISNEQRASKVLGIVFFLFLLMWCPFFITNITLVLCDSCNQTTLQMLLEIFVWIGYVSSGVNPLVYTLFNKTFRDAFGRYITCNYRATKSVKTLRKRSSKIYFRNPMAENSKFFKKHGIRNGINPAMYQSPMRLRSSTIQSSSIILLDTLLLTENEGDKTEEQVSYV
UniProt P28335, 33-458 limits assumed: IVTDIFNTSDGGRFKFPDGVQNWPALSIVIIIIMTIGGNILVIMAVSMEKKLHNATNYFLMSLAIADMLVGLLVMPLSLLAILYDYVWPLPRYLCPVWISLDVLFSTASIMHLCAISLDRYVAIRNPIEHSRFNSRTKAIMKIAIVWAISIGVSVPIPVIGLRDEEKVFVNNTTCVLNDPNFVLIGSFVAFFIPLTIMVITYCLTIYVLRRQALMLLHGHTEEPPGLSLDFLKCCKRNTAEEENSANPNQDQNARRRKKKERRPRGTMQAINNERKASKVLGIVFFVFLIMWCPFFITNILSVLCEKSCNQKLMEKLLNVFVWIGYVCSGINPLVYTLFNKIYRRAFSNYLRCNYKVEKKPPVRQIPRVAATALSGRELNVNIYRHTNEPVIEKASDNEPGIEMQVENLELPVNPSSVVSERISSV

5-HT2B receptor = 5-HT2B receptor (Homo sapiens, UniProt P41595); conditions: agonist activity, Ca2+ flux, CHO-K1 cells
5-HT2C receptor = 5-HT2C receptor (Homo sapiens, UniProt P28335); conditions: agonist activity, Ca2+ flux, HEK293 cells

Q: `COc1cc(C)cc2[nH]cc(CCN(C)C)c12` was tested. Which “5-HT2A Emax” value (5-HT2A receptor; agonist activity, HEK293 cells) did it give?
A: 63.73%

Q: And the EC50 (5-HT2A receptor; read-out: 5-HT2A EC50, agonist activity, HEK293 cells)?
A: 22.6 nM

Q: What about the “5-HT2B Emax” value (5-HT2B receptor) of the same compound?
A: 0.19%

Q: What about the EC50 (5-HT2B receptor; read-out: 5-HT2B EC50) of the same compound?
A: > 10 µM

Q: And the “5-HT2C Emax” value (5-HT2C receptor)?
A: 74.32%

Q: And the EC50 (5-HT2C receptor; read-out: 5-HT2C EC50)?
A: 25.7 nM

From patent US20250101038A1, “COMPOUNDS” (priority 2021, published 2025)
